# Experiments:
# [1] = Drug recovery in the Sorin ECMO circuit; settings: phosphorylcholine-coated circuit, whole human blood, 37°C, HPLC-MS/MS, % of 2 min concentration, single measurement
# [2] = Control group: spontaneous drug degradation in whole blood at 37°C; settings: control of Sorin experiment; whole human blood, water bath 37°C 12 h, no circuit; HPLC-MS/MS; % of 2 min concentration; single measurement
smiles,measurement,setting,value
"CC[C@H](C)CCCCC(=O)N[C@@H](CCN)C(=O)N[C@H](C(=O)N[C@@H](CCN)C(=O)N[C@H]1CCNC(=O)[C@H]([C@@H](C)O)NC(=O)[C@H](CCN)NC(=O)[C@H](CCN)NC(=O)[C@H](CC(C)C)NC(=O)[C@@H](Cc2ccccc2)NC(=O)[C@H](CCN)NC1=O)[C@@H](C)O [Polymyxin B, polymyxin B]","Drug recovery, Sorin circuit, 1 h",[1],104%
same,"Drug recovery, Control-12 h (Sorin experiment)",[2],105%

# Reference: article PMC8671752, “Effects of ex vivo Extracorporeal Membrane Oxygenation Circuits on Sequestration of Antimicrobial Agents” (Frontiers in Medicine, 2021)
